The values below come from PubChem BioAssay AID623877 (Johns Hopkins Ion Channel Center, 2012).

Amino acid sequences for entries named in this document (tags omitted).
UniProt Q8BHY3, whole entry: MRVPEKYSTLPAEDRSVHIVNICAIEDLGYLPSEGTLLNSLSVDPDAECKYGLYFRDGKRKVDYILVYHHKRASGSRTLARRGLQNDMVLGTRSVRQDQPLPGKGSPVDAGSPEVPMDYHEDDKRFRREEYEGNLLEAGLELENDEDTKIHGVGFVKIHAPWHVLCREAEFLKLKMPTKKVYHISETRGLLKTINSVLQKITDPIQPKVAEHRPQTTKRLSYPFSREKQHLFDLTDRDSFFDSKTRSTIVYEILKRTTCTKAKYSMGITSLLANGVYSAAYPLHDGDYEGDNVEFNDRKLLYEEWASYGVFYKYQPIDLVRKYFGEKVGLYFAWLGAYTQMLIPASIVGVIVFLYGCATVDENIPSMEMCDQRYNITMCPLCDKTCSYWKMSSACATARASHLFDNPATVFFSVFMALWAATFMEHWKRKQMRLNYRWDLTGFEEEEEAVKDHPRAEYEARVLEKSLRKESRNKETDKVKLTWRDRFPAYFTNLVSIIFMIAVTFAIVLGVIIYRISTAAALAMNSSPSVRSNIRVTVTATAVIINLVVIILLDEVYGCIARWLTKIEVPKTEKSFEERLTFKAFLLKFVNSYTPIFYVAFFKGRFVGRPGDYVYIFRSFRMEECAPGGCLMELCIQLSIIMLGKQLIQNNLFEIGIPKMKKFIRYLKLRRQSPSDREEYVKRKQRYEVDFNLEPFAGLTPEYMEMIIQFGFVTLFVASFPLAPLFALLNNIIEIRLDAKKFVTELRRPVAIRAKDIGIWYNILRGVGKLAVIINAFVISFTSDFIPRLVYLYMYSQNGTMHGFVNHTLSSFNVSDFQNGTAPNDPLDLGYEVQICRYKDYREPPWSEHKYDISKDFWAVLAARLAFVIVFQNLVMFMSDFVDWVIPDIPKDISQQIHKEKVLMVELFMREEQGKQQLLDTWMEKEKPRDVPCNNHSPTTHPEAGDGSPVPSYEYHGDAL

The list shows a part of the results, in another mix than the full data. Activity calls are given as the source filed them.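 Rule for the calls: active = fluorescence-ratio B-score plate-corrected deviation score at least 3 library SD below zero, with starting fluorescence score within 5 deviations; inactive = the rest.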

The target of this assay is Anoctamin-1 (Mus musculus) (UniProt Q8BHY3). As to the kind of experiment: mouse ANO1 channel activation – cell-based, HTS, primary screen (AID 623877). Particulars: HEK293 TMEM16A/YFP-H148Q/I152L, iodide quench fluorescence; at 10 µM.
`Cc1cc(N(CCCl)CCCl)ccc1C=O`: the result was inactive.
With `CCCN1CCC(Nc2cc(OC)cc(OC)c2)CC1` the entry was “inactive”; with `c1ccc(CN2CCC(Nc3ccccc3)CC2)cc1`, “inactive”.
With `CN(C)C1(CNC(=O)c2cccc(C#N)c2)CCCCC1` the entry was “inactive”.
With `CC(C)(C)OC(=O)N1CCC(N(C(=O)c2ccccc2)c2ccc(Cl)cc2)CC1` the entry was “inactive”.
For `N#Cc1ccc(C(=O)NCC2(N3CCCCC3)CCCCC2)cc1`, the call was inactive.
For the compound `N/C(=N\O)c1c(N)no[n+]1[O-]`, the compound was called inactive.
As to `CCOC(=O)N1CCC(Nc2ccc(C)cc2)CC1`, the compound was called inactive.
The same measure for `O=C(OC1CN2CCC1CC2)C1c2ccccc2C=Cc2ccccc21` (stereo not drawn): “inactive”; for `O=C(NCC1(N2CCOCC2)CCCCC1)c1cc(Br)ccc1Cl`: “inactive”; for `COc1cc(C(=O)NCC2(N3CCOCC3)CCCCC2)cc(OC)c1C`: “inactive”.
The same measure for `COc1ccc(C(=O)NCC2(N3CCOCC3)CCCCC2)cc1OC`: “inactive”; for `CCC(CO)(C(=O)OC1CN2CCC1CC2)c1ccccc1` (stereo not drawn): “inactive”; for `COc1cccc(C(=O)N(c2cc(C)cc(C)c2)C2CCN(C(=O)OC(C)(C)C)CC2)c1`: “inactive”.
With `COc1cc(OC)cc(C(=O)NCC2(N3CCOCC3)CCCCC2)c1` the entry was “inactive”; with `CN1CCC(Nc2ccc(Cl)cc2)CC1`, “inactive”; with `CN1CCC(Nc2ccc(F)c(Cl)c2)CC1`, “inactive”.
Consider `CCOc1ncccc1C(=O)NCC1(N2CCOCC2)CCCCC1`, for which the compound was classed as inactive.
The same measure for `CCCOc1ccc(C(=O)NCC2(N(C)C)CCCCC2)cc1`: “inactive”; for `O=C(O)C1(Nc2ccccc2)CCN(Cc2ccccc2)CC1`: “inactive”.
With `CC(C)(C)OC(=O)N1CCC(Nc2ccccc2)CC1` the entry was “inactive”; with `CCN1CCC(Nc2cccc(F)c2)CC1`, “inactive”.
The same measure for `Cc1ccccc1NC1(C#N)CCN(Cc2ccccc2)CC1`: “inactive”; for `Cn1c(=O)[nH]cc(N(CCCl)CCCl)c1=O`: “inactive”; for `CN(C)c1ccc(C(=O)NCC2(N3CCCCC3)CCCCC2)cc1`: “inactive”.
For `O=C(NCC1(N2CCCCC2)CCCCC1)c1ccco1`, the compound was called inactive.
With `COc1cc(OC)cc(C(=O)NCC2(N3CCCCC3)CCCCC2)c1` the entry was “inactive”; with `CC(=O)N(c1ccccc1)C1CCNCC1`, “inactive”; with `Cc1ccc(NC2(C#N)CCN(Cc3ccccc3)CC2)cc1`, “inactive”.
With `Fc1ccccc1NC1CCN(Cc2ccccc2)CC1` the entry was “inactive”; with `Cc1ccc(C(=O)NCC2(N3CCCCC3)CCCCC2)o1`, “inactive”; with `CCOC(=O)N1CCC(Nc2cccc(C)c2)CC1`, “inactive”.
For the compound `CCOc1ccc(C)cc1CN(CCCl)CCCl`, the compound was called inactive.
The same measure for `O=C1CCN(Cc2ccccc2)CC1`: “inactive”; for `CCOC(=O)N1CCC(Nc2ccc(F)cc2)CC1`: “inactive”.
For `COc1ccc(NC2CCN(CCc3ccccc3)CC2)c(OC)c1`, the result was inactive.
The same measure for `O=C(NCC1(N2CCCCC2)CCCCC1)c1ccc(F)cc1`: “inactive”; for `CCCCOc1ccc(C(=O)NCC2(N3CCOCC3)CCCCC2)cc1`: “inactive”; for `O=P1(N(CCCl)CCCl)SCCCS1`: “inactive”.
For the compound `O=C(NCC1(N2CCOCC2)CCCCC1)c1cc2ccccc2o1`, the compound was classed as inactive.
With `Cc1cc(C)cc(N(C(=O)c2ccccc2)C2CCN(C(=O)OC(C)(C)C)CC2)c1` the entry was “inactive”; with `O=C(NCC1(N2CCCCC2)CCCCC1)c1ccc(Cl)nc1`, “inactive”; with `CCOC(=O)N1CCC(Nc2ccc(OC)cc2)CC1`, “inactive”.
The same measure for `COc1ccc(Cl)cc1C(=O)NCC1(N2CCOCC2)CCCCC1`: “inactive”; for `O=C(OC1CN2CCC1CC2)C1c2ccccc2Oc2ccccc21` (stereo not drawn): “inactive”.
With `O=C(NCC1(N2CCCCC2)CCCCC1)c1ccc(Cl)s1` the entry was “inactive”; with `N#CC1(Nc2ccccc2)CCN(Cc2ccccc2)CC1`, “inactive”.
Consider `O=C(NCC1(N2CCCCC2)CCCCC1)c1cccs1`, for which the compound was classed as inactive.
Consider `O=C(NCC1(N2CCCCC2)CCCCC1)c1ccc(=O)[nH]c1`, for which the result was inactive.
Consider `CC(C)(C)OC(=O)N1CCC(N(C(=O)c2ccccc2)c2ccc(F)cc2)CC1`, for which the outcome was inactive.
With `COc1ccc(C(=O)NCC2(N3CCCCC3)CCCCC2)c(OC)c1OC` the entry was “inactive”; with `COc1ccc(C(=O)NCC2(N3CCCCC3)CCCCC2)cc1`, “inactive”.
The same measure for `Cc1cccc(NC2(C#N)CCN(Cc3ccccc3)CC2)c1`: “inactive”; for `CSc1ccccc1C(=O)NCC1(N2CCCCC2)CCCCC1`: “inactive”; for `O=C(NCC1(N2CCCCC2)CCCCC1)c1cncc(Br)c1`: “inactive”.
With `CN1CCC(Nc2cccc(F)c2)CC1` the entry was “inactive”; with `CCCOc1ccc(C(=O)NCC2(N(C)C)CCCCC2)cc1OC`, “inactive”; with `CN(C)c1cccc(C(=O)NCC2(N3CCCCC3)CCCCC2)c1`, “inactive”.
With `COc1ccc(CN(CCCl)CCCl)cc1Cl`, the compound was called inactive.
The same measure for `CC(C)c1ccc(NC2CCN(C(=O)OC(C)(C)C)CC2)cc1`: “inactive”; for `O=C(NCC1(N2CCOCC2)CCCCC1)c1cc(F)c(F)cc1Cl`: “inactive”; for `COc1cc(OC)c(C(=O)NCC2(N(C)C)CCCCC2)cc1OC`: “inactive”.
Consider `O=C(NCC1(N2CCCCC2)CCCCC1)c1cccc(C(F)(F)F)c1`, for which the compound was classed as inactive.
The same measure for `CC(C)c1ccc(C(=O)NCC2(N3CCOCC3)CCCCC2)cc1`: “inactive”.
The same measure for `COc1ccc(NC2CCN(C(=O)OC(C)(C)C)CC2)cc1`: “inactive”.
With `CN1CCN(CCOC(=O)C(O)(c2ccccc2)c2ccccc2)CC1` the entry was “inactive”; with `O=C(NCC1(N2CCOCC2)CCCCC1)c1cc(=O)[nH]c2ccccc12`, “inactive”; with `COc1cc(C(=O)NCC2(N3CCCCC3)CCCCC2)ccc1OC(F)F`, “inactive”.
Turning to `O=C(NCC1(N2CCCCC2)CCCCC1)c1ccc(OC(F)F)cc1`, the call was inactive.
The same measure for `O=C(NCC1(N2CCCCC2)CCCCC1)c1cccc([N+](=O)[O-])c1`: “inactive”; for `CSc1ccc(C(=O)NCC2(N3CCOCC3)CCCCC2)cc1`: “inactive”.
With `N#CC1(Nc2ccccc2)CCN(CCc2ccccc2)CC1` the entry was “inactive”; with `CCN1CCC(Nc2ccc(Cl)cc2)CC1`, “inactive”.
